Amino acid sequences for entries named in this document (tags omitted). Residues count along the entry.
Neuropilin-1 (Homo sapiens), O14786, UniProt O14786, whole entry, looked up: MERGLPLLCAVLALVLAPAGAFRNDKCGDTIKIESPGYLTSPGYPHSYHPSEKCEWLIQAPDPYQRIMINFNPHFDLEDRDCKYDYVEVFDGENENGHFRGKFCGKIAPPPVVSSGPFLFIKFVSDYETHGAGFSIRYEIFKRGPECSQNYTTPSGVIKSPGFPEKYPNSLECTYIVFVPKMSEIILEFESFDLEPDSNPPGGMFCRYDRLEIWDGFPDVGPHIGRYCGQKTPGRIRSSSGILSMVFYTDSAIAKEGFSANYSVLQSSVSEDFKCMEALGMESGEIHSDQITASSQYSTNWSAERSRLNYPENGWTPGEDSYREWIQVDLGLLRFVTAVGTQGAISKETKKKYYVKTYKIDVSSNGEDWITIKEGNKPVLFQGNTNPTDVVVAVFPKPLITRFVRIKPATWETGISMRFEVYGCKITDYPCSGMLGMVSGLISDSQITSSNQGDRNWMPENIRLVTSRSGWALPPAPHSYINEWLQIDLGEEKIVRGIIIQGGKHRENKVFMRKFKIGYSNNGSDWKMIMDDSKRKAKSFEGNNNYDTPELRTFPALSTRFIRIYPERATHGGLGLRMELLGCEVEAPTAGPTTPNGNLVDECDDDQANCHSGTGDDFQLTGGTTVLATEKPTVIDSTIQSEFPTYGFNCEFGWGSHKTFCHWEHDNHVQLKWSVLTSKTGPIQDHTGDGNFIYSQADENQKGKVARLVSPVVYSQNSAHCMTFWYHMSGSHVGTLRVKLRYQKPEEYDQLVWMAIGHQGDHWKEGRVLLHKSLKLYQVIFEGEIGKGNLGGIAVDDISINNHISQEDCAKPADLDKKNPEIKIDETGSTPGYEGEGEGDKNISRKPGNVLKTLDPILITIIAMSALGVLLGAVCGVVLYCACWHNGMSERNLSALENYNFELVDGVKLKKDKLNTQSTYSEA
Melanocortin receptor 4 (Homo sapiens), P32245, UniProt P32245, whole entry, looked up: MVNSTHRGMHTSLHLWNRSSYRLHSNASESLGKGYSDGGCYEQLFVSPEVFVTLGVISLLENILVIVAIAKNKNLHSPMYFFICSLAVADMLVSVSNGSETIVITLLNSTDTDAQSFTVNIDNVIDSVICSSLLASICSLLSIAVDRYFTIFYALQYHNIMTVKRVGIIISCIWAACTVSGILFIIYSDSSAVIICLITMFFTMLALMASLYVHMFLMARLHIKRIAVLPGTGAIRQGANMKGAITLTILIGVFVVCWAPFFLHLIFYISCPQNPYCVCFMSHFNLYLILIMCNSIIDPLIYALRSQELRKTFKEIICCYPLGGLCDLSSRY
ADP-ribosylation factor GTPase-activating protein 1 (Rattus norvegicus), Q62848, UniProt Q62848, whole entry, looked up: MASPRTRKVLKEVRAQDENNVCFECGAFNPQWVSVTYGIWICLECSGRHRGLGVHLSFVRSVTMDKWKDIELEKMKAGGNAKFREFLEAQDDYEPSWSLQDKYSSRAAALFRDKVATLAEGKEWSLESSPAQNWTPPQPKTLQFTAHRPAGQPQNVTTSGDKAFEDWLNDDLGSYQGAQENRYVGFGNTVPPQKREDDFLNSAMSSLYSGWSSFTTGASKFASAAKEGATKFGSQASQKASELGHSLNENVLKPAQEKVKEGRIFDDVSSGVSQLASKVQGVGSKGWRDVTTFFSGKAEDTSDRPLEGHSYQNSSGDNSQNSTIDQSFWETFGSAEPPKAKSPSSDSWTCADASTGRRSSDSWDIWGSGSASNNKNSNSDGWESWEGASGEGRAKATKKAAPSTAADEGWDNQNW
ADP-ribosylation factor GTPase-activating protein 1 (Rattus norvegicus), Q62848, UniProt Q62848, 1-136 limits assumed: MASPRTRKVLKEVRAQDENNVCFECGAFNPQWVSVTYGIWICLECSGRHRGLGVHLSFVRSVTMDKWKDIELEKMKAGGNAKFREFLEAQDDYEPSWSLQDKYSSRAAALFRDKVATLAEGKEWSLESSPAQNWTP

# CendR NRP1 mod – modulators of CendR peptide binding to NRP-1, primary screen, biochemical, fluorescence polarization, uHTS; Neuropilin-1 (Homo sapiens), O14786; FAM-RPARPAR peptide binding to NRP-1; inhibition, % at 25 µM; actives 0.85% (n = 360,000); AID 602438, 2012;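 active = inhibition or corrected inhibition above about 18%, plus a signal ratio from 0.5 to 1.5, limit read from the data, passing the limit was not always enough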
# MC4R antag cAMP – MC4R antagonists of cAMP signaling, primary screen, cell-based, TR-FRET, antagonist arm of biased-ligand search; Melanocortin receptor 4 (Homo sapiens), P32245; MC4R-expressing cells, MTII-stimulated cAMP, LANCE TR-FRET; inhibition, % at 6.5 µM; actives 0.48% (n = 360,000);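 active = inhibition above its plate's cutoff, the mean of tested wells on that plate plus 3 SD, cut at about 29% in these data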;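 also: 0% = Melanotan II alone and 100% = Melanotan II plus saturating MCL0020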
#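 Material: human MC4R-expressing U2OS cells. Probe or stimulus: Melanotan II challenge. Dosing: 6.5 µM single dose. Times: 30-min compound, 1-h challenge, 1-h detection, room temperature. Technique: TR-FRET with Eu-cAMP and labeled anti-cAMP, 671 nm. Replication: singlicate.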
# MC4R ag barr – MC4R agonists recruiting beta-arrestin, primary screen, cell-based, luminescence, agonist arm of biased-ligand search | Melanocortin receptor 4 (Homo sapiens), P32245 | U2OS MC4R beta-arrestin complementation; percent of melanotan II response, DMSO zero | activation, % at 8.9 µM | actives 0.98% (n = 360,000);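 active = activation above a per-plate cutoff, the mean activation of sample wells on that plate plus 3 SD, cut at about 8% in these data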
# ARFGAP1 inhibitor – inhibitors of rat ARFGAP1 GAP activity, primary screen, biochemical, fluorescence polarization, GDP tracer | actives 0.26% (n = 360,000) | Arfgap1-stimulated ARF1 GTP hydrolysis, GDP FP detection | AID 651572, 2012 | inhibition, % at 16.5 µM | ADP-ribosylation factor GTPase-activating protein 1 (Rattus norvegicus), Q62848;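 active = inhibition above a per-plate limit, mean inhibition of low control wells plus 3 SD, cut at about 25% in these data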;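 also: 0% = DMSO wells with enzyme and 100% = wells lacking Arfgap1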
#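 Assay system: purified rat His6-Arfgap1 residues 1-136 (GAP domain); Reagent: human Δ17 ARF1 bound to GTP; Dosing: 16.5 µM single point, 1.26% DMSO; Times: GTP hydrolysis reaction 2 h at 25 °C; Signal: FP, GDP Alexa 633 tracer displaced from anti-GDP antibody, 620/688 nm; Measure: % inhibition from polarization.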
# ASAP1 inh – inhibitors of human ASAP1 ArfGAP activity, primary screen, biochemical, fluorescence polarization. ASAP1-stimulated ARF1 GTP hydrolysis, GDP FP detection. inhibition, % at 16.5 µM. actives 0.19% (n = 360,000). AID 624377, 2012; in the data active = inhibition above about 25%;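 also: 0% = vehicle with enzyme and substrate and 100% = no enzyme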
# UUG fidelity – alters start codon recognition fidelity in yeast. S. cerevisiae UUG-firefly luciferase reporter, luminescence/redox ratio. 350,000 tested, 0.13% active. activity score, % at 18.7 µM. AID 602363;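 active means replicate mean at a twofold rise or more, about +100% in these data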;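 further: firefly luciferase made from a UUG start codon reports start codon fidelity; reporter light over untreated wells divided by growth signal over untreated wells; some hits fall short of that in this replicate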
# U2OS cAMP counter – nonselective cAMP signaling inhibitors, parental cells, counter-screen for MC4R biased antagonist project, cell-based, TR-FRET, U2OS, forskolin, triplicate; shares compounds with MC4R antag cAMP; LANCE TR-FRET; inhibition, % at 6.5 µM; actives 26% (n = 1,600); AID 602193, 2012;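 active = mean inhibition over triplicates above the low-control well mean plus 3 SD, set per campaign, cut at about 13% in these data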;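 also: signal is single emission at 671 nm which falls as cellular cAMP rises; 0% = forskolin-stimulated wells and 100% = buffer without forskolin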
# MC4R antag conf – MC4R cAMP antagonists, retest, confirmation, cell-based, TR-FRET | MC4R-expressing cells, MTII-stimulated cAMP | actives 27% (n = 1,600) | inhibition, % at 6.5 µM | shares compounds with MC4R antag cAMP; in the data active = inhibition above about 29%;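 also: 0% = agonist stimulated wells alone and 100% = agonist stimulated wells plus saturating reference antagonist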
# Starred values were filed as active, the others as inactive; · = no result. Most compounds without a hit are left out; they make up all but 2.3% or so of the library.
# Labels used below: A = CendR NRP1 mod; B = MC4R antag cAMP; C = MC4R ag barr; D = ARFGAP1 inhibitor; E = ASAP1 inh; F = UUG fidelity; G = U2OS cAMP counter; H = MC4R antag conf
COc1cc(S(=O)(=O)n2ccc(C)n2)c(OC)cc1Cl
  A = 15	B = 2	C = 2	D = -6	E = 7	F = -6	G = ·	H = ·

COc1cc(S(=O)(=O)n2ccc(C)n2)ccc1Cl
  A = 6	B = 29*	C = 0	D = 2	E = 0	F = -9	G = 1	H = -7

COc1ccccc1NC(=O)N[C@H]1CC[C@@H](CC(=O)N2CCC(Cc3ccccc3)CC2)O[C@H]1CO
  A = ·	B = ·	C = ·	D = ·	E = ·	F = 19	G = ·	H = ·

COc1ccccc1-c1cnc2c(c1)C(=O)N([C@H](C)CO)C[C@@H](C)[C@H](CN(C)Cc1ccc(F)cc1)O2
  A = ·	B = ·	C = ·	D = ·	E = ·	F = 9	G = ·	H = ·

COc1ccc(-n2cccc2/C=C2\C(=N)N3N=C(C(C)C)SC3=NC2=O)cc1
  A = -16	B = 47*	C = -2	D = -9	E = -12	F = ·	G = 1	H = 8

CCC1=NN2C(=N)/C(=C\c3cccn3-c3ccc(C)cc3C)C(=O)N=C2S1
  A = -20	B = 44*	C = 1	D = -7	E = -5	F = ·	G = 1	H = 9

CCC1=NN2C(=N)/C(=C\c3cccn3-c3c(C)cccc3C)C(=O)N=C2S1
  A = 12	B = 3	C = 3	D = -3	E = -5	F = -17	G = ·	H = ·

CCC(=O)N[C@H]1C=C[C@@H](CC(=O)NCc2ccc(OC)cc2)O[C@@H]1CO
  A = ·	B = ·	C = ·	D = ·	E = ·	F = -7	G = ·	H = ·

C[C@@H]1CCCCO[C@@H](CN(C)C(=O)Cc2ccccc2)[C@@H](C)CN([C@@H](C)CO)C(=O)c2cc(NS(=O)(=O)c3cn(C)cn3)ccc2O1
  A = ·	B = ·	C = ·	D = ·	E = ·	F = 6	G = ·	H = ·

CC1(C)C(=O)Nc2ccccc2N1C(=O)COC(=O)c1cc(S(C)(=O)=O)ccc1Cl
  A = -11	B = 23	C = -2	D = 14	E = -5	F = -1	G = ·	H = ·

CC1(C)C(=O)Nc2ccccc2N1C(=O)COC(=O)c1cc(S(=O)(=O)N2CCOCC2)ccc1F
  A = -2	B = 36*	C = -2	D = 1	E = 14	F = ·	G = 17*	H = 46*

COc1cc(-c2nnc(Sc3ccc(C(F)(F)F)cc3[N+](=O)[O-])o2)cc(OC)c1OC
  A = -10	B = 29*	C = 0	D = -1	E = 4	F = 5	G = 2	H = 5

O=C(O)c1cnn(-c2nc(-c3ccc(Cl)cc3)cs2)c1C(F)(F)F
  A = 0	B = 31*	C = -1	D = -2	E = -11	F = -20	G = 4	H = 18

CC(C)(C)OC(=O)N1CCC(NC(=O)c2nc[nH]c2C(=O)NCC(=O)OCc2ccccc2)CC1
  A = 2	B = 34*	C = -1	D = 1	E = -1	F = -2	G = 9	H = 8

Cc1ccccc1CN1CCC(Oc2ccc(C(=O)N3CCCC3)cc2)CC1
  A = 3	B = 29*	C = 0	D = 8	E = -13	F = -9	G = 0	H = -3

Cc1noc(C)c1NC(=O)Nc1ccc2c(c1)C(=O)N([C@H](C)CO)C[C@H](C)[C@H](CN(C)C(=O)Nc1c(C)noc1C)OCCCC[C@H](C)O2
  A = ·	B = ·	C = ·	D = ·	E = ·	F = 14	G = ·	H = ·

CCc1ccc(NC(=O)C(=O)NCCN2CCN(S(=O)(=O)c3ccccc3)CC2)cc1
  A = 16	B = 32*	C = 0	D = -10	E = -3	F = -8	G = 4	H = 8

CCc1ccc(NC(=O)C(=O)NCCN2CCN(S(C)(=O)=O)CC2)cc1
  A = 2	B = 0	C = -2	D = -4	E = -1	F = ·	G = ·	H = ·

CCOc1ccc(CCNC(=O)CCS(=O)(=O)c2ccc(Br)cc2)cc1OCC
  A = 13	B = 29*	C = 1	D = 7	E = 0	F = -20	G = 0	H = 10

COc1ccccc1CNC(=O)c1oc2ccc(S(=O)(=O)N3CCOCC3)cc2c1C
  A = 0	B = 4	C = 0	D = 8	E = 5	F = -6	G = ·	H = ·

COc1ccccc1CNC(=O)c1oc2ccc(S(=O)(=O)N3CCCC3)cc2c1C
  A = -4	B = 29*	C = 0	D = ·	E = ·	F = -24	G = 4	H = 12

COc1ccc(CNC(=O)c2oc3ccc(S(=O)(=O)N4CCOCC4)cc3c2C)cc1
  A = 0	B = 32*	C = 1	D = 8	E = -2	F = 7	G = -1	H = 4

CC(=O)Nc1nc(C2CC2)cc(-c2ccccc2)c1C#N
  A = -3	B = 35*	C = -1	D = -3	E = 3	F = ·	G = 1	H = 0

Cc1ccc(S(=O)(=O)Nc2ccc3c(c2)CC(=O)N([C@@H](C)CO)C[C@H](C)[C@H](CN(C)CC2CC2)O3)cc1
  A = ·	B = ·	C = ·	D = ·	E = ·	F = 11	G = ·	H = ·

C=C(C)C1CC=C(C)/C(=N/NC(=O)COc2ccccc2Cl)C1 (stereo unspecified)
  A = 7	B = 33*	C = -1	D = -18	E = -2	F = ·	G = -2	H = -9

# (listing goes on)
# Fields: CendR NRP1 mod	MC4R antag cAMP	MC4R ag barr	ARFGAP1 inhibitor	ASAP1 inh	UUG fidelity	U2OS cAMP counter	MC4R antag conf
- C=C(C)C1CC=C(C)/C(=N/NC(=O)COc2ccc(C)cc2)C1 (stereo unspecified)
 : -7	17	1	2	-18	-14	·	·
- CO[C@H]1CN(C)C(=O)c2ccc(NC(=O)NC(C)C)cc2OC[C@H](C)N(C(=O)C2CCC2)C[C@H]1C
 : ·	·	·	·	·	13	·	·
- S=c1[nH]nc(-c2ccc3ccccc3n2)n1-c1cc(Cl)cc(Cl)c1
 : 14	32*	4	-9	-11	·	12	28
- COc1ccc(-c2ccc(CCC(=O)O)n2CC(=O)Nc2ccccc2C)cc1
 : 10	31*	-1	-8	10	-14	3	1
- COc1ccc(NC(=O)Cn2c(CCC(=O)O)ccc2-c2ccccc2)cc1
 : 7	16	-1	4	1	-14	·	·
- CC(Sc1ccc2ccccc2n1)C(=O)O (stereo unspecified)
 : 10	58*	3	3	-3	-2	42*	77*
- COc1ccc(CNC(=O)CCN2C(=O)c3ccccc3C2=O)cc1OC
 : -3	-4	-1	0	2	-18	·	·
- COc1cc(OC)c(OC)cc1CNC(=O)CCN1C(=O)c2cccc([N+](=O)[O-])c2C1=O
 : 8	32*	0	-3	2	-11	5	13
- COc1ccc(NC(=O)CCCCCN2C(=O)c3cccc([N+](=O)[O-])c3C2=O)c(OC)c1
 : 2	16	0	5	3	-16	·	·
- COc1ccc(OC)c(NC(=O)CCN2C(=O)c3cccc([N+](=O)[O-])c3C2=O)c1
 : 16	41*	-1	0	6	-6	13	27
- CC(=O)c1ccc(NC(=O)COC(=O)CCN2C(=O)c3cccc([N+](=O)[O-])c3C2=O)cc1
 : 2	22	-4	11	-5	·	·	·

# Assay outcomes (PubChem BioAssay)
